Earlier results, collected in patent US10214540B2, “Compound having agonistic activity on somatostatin receptor, and use thereof for medical purposes” (ONO PHARMACEUTICAL CO., LTD., priority 2012, dated 2019).

Amino acid sequences for entries named in this document (tags omitted).
UniProt P30874, whole entry, species assumed: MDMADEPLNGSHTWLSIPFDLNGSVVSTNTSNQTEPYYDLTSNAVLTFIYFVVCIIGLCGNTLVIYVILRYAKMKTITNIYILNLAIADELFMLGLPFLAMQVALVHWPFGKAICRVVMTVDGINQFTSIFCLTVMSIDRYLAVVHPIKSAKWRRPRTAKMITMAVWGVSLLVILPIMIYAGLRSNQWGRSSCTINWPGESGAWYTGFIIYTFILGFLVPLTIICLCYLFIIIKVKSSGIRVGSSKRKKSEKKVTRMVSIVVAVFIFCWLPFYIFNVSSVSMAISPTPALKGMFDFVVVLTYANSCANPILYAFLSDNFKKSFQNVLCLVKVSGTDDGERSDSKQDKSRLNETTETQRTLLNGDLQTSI
UniProt P32745, whole entry, species assumed: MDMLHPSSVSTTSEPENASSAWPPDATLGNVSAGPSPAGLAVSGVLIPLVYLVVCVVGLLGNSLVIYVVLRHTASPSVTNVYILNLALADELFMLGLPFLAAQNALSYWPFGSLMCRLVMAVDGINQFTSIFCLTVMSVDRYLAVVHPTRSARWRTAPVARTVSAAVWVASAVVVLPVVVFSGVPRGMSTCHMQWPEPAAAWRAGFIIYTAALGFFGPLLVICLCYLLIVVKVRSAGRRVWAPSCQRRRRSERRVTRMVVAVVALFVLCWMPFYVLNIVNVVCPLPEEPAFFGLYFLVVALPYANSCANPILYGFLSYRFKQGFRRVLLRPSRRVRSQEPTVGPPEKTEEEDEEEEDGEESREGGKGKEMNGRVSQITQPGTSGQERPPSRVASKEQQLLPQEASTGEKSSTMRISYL
UniProt P35346, whole entry, species assumed: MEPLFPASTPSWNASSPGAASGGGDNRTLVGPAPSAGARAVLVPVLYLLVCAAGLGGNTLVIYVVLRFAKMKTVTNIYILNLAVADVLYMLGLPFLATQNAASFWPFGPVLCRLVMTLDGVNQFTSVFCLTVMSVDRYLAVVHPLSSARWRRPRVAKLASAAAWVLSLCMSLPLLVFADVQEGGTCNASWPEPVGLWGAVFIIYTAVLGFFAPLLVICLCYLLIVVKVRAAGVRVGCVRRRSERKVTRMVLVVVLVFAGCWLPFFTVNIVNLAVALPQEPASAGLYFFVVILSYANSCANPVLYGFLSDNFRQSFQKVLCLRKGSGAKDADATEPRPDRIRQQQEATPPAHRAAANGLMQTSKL
UniProt P30872, whole entry, species assumed: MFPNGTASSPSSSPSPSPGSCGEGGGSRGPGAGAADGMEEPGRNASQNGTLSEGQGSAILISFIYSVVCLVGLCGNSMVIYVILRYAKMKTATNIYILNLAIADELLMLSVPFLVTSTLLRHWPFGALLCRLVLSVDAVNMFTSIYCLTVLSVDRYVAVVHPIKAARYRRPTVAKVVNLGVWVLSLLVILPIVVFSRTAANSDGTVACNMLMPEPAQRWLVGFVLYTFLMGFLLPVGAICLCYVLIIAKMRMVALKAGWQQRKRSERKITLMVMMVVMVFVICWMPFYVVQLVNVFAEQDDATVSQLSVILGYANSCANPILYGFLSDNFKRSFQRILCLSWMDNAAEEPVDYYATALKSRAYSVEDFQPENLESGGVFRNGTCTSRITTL
UniProt P31391, whole entry, species assumed: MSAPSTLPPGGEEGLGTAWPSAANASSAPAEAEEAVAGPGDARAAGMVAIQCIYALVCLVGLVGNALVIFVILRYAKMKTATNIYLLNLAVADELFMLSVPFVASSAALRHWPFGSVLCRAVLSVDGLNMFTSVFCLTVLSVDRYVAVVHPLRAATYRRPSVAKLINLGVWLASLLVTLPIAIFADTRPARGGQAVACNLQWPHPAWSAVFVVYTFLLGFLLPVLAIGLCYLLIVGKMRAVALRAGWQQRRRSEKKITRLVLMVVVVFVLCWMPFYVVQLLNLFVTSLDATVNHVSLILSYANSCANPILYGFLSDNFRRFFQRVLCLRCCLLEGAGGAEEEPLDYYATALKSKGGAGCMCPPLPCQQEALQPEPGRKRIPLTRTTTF

How the values were obtained:
Details in all cases: reported in background art; cited from earlier work
[1] = molecular target: somatostatin receptor subtype 2 (SSTR2) (Homo sapiens, UniProt P30874)
[2] = molecular target: somatostatin receptor subtype 3 (SSTR3) (Homo sapiens, UniProt P32745)
[3] = molecular target: somatostatin receptor subtype 5 (SSTR5) (Homo sapiens, UniProt P35346)
[4] = molecular target: somatostatin receptor subtype 1 (SSTR1) (Homo sapiens, UniProt P30872)
[5] = molecular target: somatostatin receptor subtype 4 (SSTR4) (Homo sapiens, UniProt P31391)

In the case of Octreotide acetate, the “binding affinity to SSTR2 (in words)” value [1] is listed as “high affinity”, the “binding affinity to SSTR3 (in words)” value [2] is listed as “moderate affinity” and the “binding affinity to SSTR5 (in words)” value [3] is listed as “moderate affinity”. For the same substance, the “binding to SSTR1 (in words)” value [4] was “not to bind” and the “binding to SSTR4 (in words)” value [5] was “not to bind”.
